Results taken from patent US6476076B1 (priority 1999, dated 2002).

Chains of the proteins cited; added tags and fusions are not shown.
UniProt O35433, whole entry: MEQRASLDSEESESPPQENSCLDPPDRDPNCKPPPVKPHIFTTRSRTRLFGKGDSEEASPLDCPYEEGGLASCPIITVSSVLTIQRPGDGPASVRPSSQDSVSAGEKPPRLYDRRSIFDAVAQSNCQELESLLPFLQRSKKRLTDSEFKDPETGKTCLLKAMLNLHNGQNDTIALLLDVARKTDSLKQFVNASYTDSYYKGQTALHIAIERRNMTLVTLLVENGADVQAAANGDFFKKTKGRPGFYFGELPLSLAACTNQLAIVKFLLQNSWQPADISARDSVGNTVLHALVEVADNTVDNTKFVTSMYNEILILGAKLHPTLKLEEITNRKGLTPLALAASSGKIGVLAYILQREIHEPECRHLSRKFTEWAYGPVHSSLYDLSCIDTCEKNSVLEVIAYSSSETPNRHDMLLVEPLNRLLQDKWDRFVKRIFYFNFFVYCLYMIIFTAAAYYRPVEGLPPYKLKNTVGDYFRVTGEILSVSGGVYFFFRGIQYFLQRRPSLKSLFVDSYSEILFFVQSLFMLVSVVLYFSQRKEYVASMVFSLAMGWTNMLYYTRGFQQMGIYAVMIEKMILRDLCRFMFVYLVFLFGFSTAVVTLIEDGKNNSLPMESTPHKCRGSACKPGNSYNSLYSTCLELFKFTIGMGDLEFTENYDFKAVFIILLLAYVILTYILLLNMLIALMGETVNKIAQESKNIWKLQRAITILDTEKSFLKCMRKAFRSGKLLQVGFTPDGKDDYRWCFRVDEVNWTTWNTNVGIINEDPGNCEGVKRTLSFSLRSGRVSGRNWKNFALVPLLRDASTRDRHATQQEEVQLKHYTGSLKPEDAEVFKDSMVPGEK

What follows are substances tested against T1, vanilloid receptor (rat spinal cord membrane preparations) (Rattus norvegicus, UniProt O35433). Details: read-out: Affinities (Ki).
T1 construct: determined on membrane preparations from rat spinal cord; from tissue; host or cells: rat spinal cord membranes
Assay type: binding

| Substance | Ki [nM] |
| --- | --- |
| 2-(3,4-Dimethylbenzyl)-3-{[(4-hydroxy-3-methoxybenzyl)amino]carbothioyl}propyl Pivalate [7b-I] | 19 |
| 2-(4-Chlorobenzyl)-3-{[(4-hydroxy-3-methoxybenzyl)amino]carbothioyl}propyl Benzoate [7c-V] | 149 |
| 2-(4-t-Butylbenzyl)-3-{[(4-hydroxy-3-methoxybenzyl)amino]carbothioyl}propyl Pivalate [7d-I] | 10.8 |
| 2-Benzyl-3-{[(4-hydroxy-3-methoxybenzyl)amino]carbothioyl}propyl Benzoate [7a-V] | 31.2 |
| 2-Benzyl-3-{[(4-hydroxy-3-methoxybenzyl)amino]carbothioyl}propyl Pivalate [7a-I] | 65.6 |
| (S)-2-Benzyl-3-{[(4-hydroxy-3-methoxybenzyl)amino]carbothioyl}propyl Pivalate [(S)-7a-I] | 74 |
